{"source": "patent US10670605B2", "about": "“Cysteine reactive probes and uses thereof” (The Scripps Research Institute, priority 2015, dated 2020)", "key": {"primary human T cells": {"system": "primary human T cells", "experiment": "FasL-induced apoptosis in activated primary T cells", "type": "cell-based", "details": "anti-CD3, anti-CD28-activated primary human T cells"}, "Jurkat cells [1]": {"system": "Jurkat cells", "experiment": "FasL-induced (extrinsic) apoptosis, CellTiter-Glo viability", "type": "cell-based, human", "details": "30 μM (VAD-FMK 100 μM), 30 min before FASL, 6 h"}, "PDIA6 C190 (Q15084)": {"molecular_target": "PDIA6 C190 (Q15084) (Homo sapiens, UniProt Q15084)", "experiment": "Competitive isoTOP-ABPP, cell lysates", "type": "binding", "details": "500 μM, invitro", "procedure": "(§1) TEV digests were pressure loaded onto a 250 μm (inner diameter) fused silica capillary column packed with C18 resin (Aqua 5 μm, Phenomenex). The samples were analyzed by multidimensional liquid chromatography tandem mass spectrometry (MudPIT), using an LTQ-Velos Orbitrap mass spectrometer (Thermo Scientific) coupled to an Agilent 1200-series quaternary pump. The peptides were eluted onto a biphasic column with a 5 μm tip (100 μm fused silica, packed with C18 (10 cm) and bulk strong cation exchange resin (3 cm, SCX, Phenomenex,)) in a 5-step MudPIT experiment, using 0%, 30%, 60%, 90%, and 100% salt bumps of 500 mM aqueous ammonium acetate and using a gradient of 5-100% buffer B in buffer A (buffer A: 95% water, 5% acetonitrile, 0.1% formic acid; buffer B: 5% water, 95% acetonitrile, 0.1% formic acid) as has been described in Weerapana et al. Nat Protoc 2:1414-1425 (2007). Data was collected in data-dependent acquisition mode with dynamic exclusion enabled (20 s, repeat of 2). One full MS (MS1) scan (400-1800 m/z) was followed by 30 MS2 scans (ITMS) of the nth most abundant ions.\n(§2) The ratios of heavy/light for each unique peptide (DMSO/compound treated; isoTOP-ABPP ratios, R values) were quantified with in-house CIMAGE software, using default parameters (3 ms s per peak and signal to noise threshold 2.5). Site-specific engagement of electrophilic fragments was assessed by blockade of IA-alkyne probe labeling. […] Ratios for unique peptide entries were calculated for each experiment; overlapping peptides with the same modified cysteine (e.g. different charge states, MudPIT chromatographic steps or tryptic termini) were grouped together and the median ratio was reported as the final ratio (R). The peptide ratios reported by CIMAGE were further filtered to ensure the removal or correction of low quality ratios in each individual dataset. The quality filters applied were the following: removal of half tryptic peptides; for ratios with high standard deviations from the median (90% of the median or above) the lowest ratio was taken instead of the median; removal of peptides with R=20 and only a single ms2 event triggered during the elution of the parent ion; manual annotation of all the peptides with ratios of 20, removing any peptides with low-quality elution profiles that remained after the previous curation steps. Proteome reactivity values for individual fragments were computed as the percentage of the total quantified cysteine-containing peptides with R values≥4 (defined as liganded cysteines) for each replicate experiment and the final proteome reactivity value was calculated as the mean for all replicate experiments for each fragment from both MDA-MB-231 and Ramos cellular proteomes.\n(§3) Biological replicates of the same compound and cell-line were averaged if the standard deviation was below 60% of the mean; otherwise the lowest value of the ratio set was taken."}, "STAT3 C259 (P40763)": {"molecular_target": "STAT3 C259 (P40763) (Homo sapiens, UniProt P40763)", "experiment": "Competitive isoTOP-ABPP, cell lysates", "type": "binding", "details": "500 μM, invitro", "procedure": "as §1, §2, §3"}, "PRMT1 C109 (Q99873)": {"molecular_target": "PRMT1 C109 (Q99873) (Homo sapiens, UniProt Q99873)", "experiment": "Competitive isoTOP-ABPP, cell lysates", "type": "binding", "details": "500 μM, invitro", "procedure": "as §1, §2, §3"}, "USP22 C171 (Q9UPT9)": {"molecular_target": "USP22 C171 (Q9UPT9) (Homo sapiens, UniProt Q9UPT9)", "experiment": "Competitive isoTOP-ABPP, cell lysates", "type": "binding", "details": "500 μM, invitro, ramos", "procedure": "as §1, §2, §3"}, "XPO1 C528 (O14980)": {"molecular_target": "XPO1 C528 (O14980) (Homo sapiens, UniProt O14980)", "experiment": "Competitive isoTOP-ABPP, cell lysates", "type": "binding", "details": "500 μM, invitro, 231", "procedure": "as §1, §2, §3"}, "IREB2 C137 (P48200)": {"molecular_target": "IREB2 C137 (P48200) (Homo sapiens, UniProt P48200)", "experiment": "Competitive isoTOP-ABPP, cell lysates", "type": "binding", "details": "500 μM, invitro, ramos", "procedure": "as §1, §2, §3"}, "IDH2 C308 (P48735)": {"molecular_target": "IDH2 C308 (P48735) (Homo sapiens, UniProt P48735)", "experiment": "Competitive isoTOP-ABPP, cell lysates", "type": "binding", "details": "500 μM, invitro, 231", "procedure": "as §1, §2, §3"}, "GSTP1 C48 (P09211)": {"molecular_target": "GSTP1 C48 (P09211) (Homo sapiens, UniProt P09211)", "experiment": "Competitive isoTOP-ABPP, cell lysates", "type": "binding", "details": "500 μM, invitro", "procedure": "as §1, §2, §3"}, "PCK2 C306 (Q16822)": {"molecular_target": "PCK2 C306 (Q16822) (Homo sapiens, UniProt Q16822)", "experiment": "Competitive isoTOP-ABPP, cell lysates", "type": "binding", "details": "500 μM, invitro, 231", "procedure": "as §1, §2, §3"}, "GNB2L1 C182 (P63244)": {"molecular_target": "GNB2L1 C182 (P63244) (Homo sapiens, UniProt P63244)", "experiment": "Competitive isoTOP-ABPP, cell lysates", "type": "binding", "details": "500 μM, invitro, 231", "procedure": "as §1, §2, §3"}, "MGMT C150 (P16455)": {"molecular_target": "MGMT C150 (P16455) (Homo sapiens, UniProt P16455)", "experiment": "Competitive isoTOP-ABPP, cell lysates", "type": "binding", "details": "500 μM, invitro, ramos", "procedure": "as §1, §2, §3"}, "ACAT1 C119 (P24752)": {"molecular_target": "ACAT1 C119 (P24752) (Homo sapiens, UniProt P24752)", "experiment": "Competitive isoTOP-ABPP, cell lysates", "type": "binding", "details": "500 μM, invitro"}, "ACAT1 C126 (P24752)": {"molecular_target": "ACAT1 C126 (P24752) (Homo sapiens, UniProt P24752)", "experiment": "Competitive isoTOP-ABPP, cell lysates", "type": "binding", "details": "500 μM, invitro, 231"}, "ACAT1 C196 (P24752)": {"molecular_target": "ACAT1 C196 (P24752) (Homo sapiens, UniProt P24752)", "experiment": "Competitive isoTOP-ABPP, cell lysates", "type": "binding", "details": "500 μM, invitro, 231"}, "ERCC3 C342 (P19447)": {"molecular_target": "ERCC3 C342 (P19447) (Homo sapiens, UniProt P19447)", "experiment": "Competitive isoTOP-ABPP, cell lysates", "type": "binding", "details": "500 μM, invitro"}, "ACAT1 C413 (P24752)": {"molecular_target": "ACAT1 C413 (P24752) (Homo sapiens, UniProt P24752)", "experiment": "Competitive isoTOP-ABPP, cell lysates", "type": "binding", "details": "500 μM, invitro, 231"}, "active CASP8 C360": {"molecular_target": "active CASP8 C360 (Homo sapiens, UniProt Q14790)", "experiment": "isoTOP-ABPP of recombinant caspase added to cell lysate", "details": "30 μM, 1 h, recombinant protein in cell lysate"}, "pro-CASP8 C360": {"molecular_target": "pro-CASP8 C360 (Homo sapiens, UniProt Q14790, D374A/D384A)", "experiment": "isoTOP-ABPP of recombinant caspase added to cell lysate", "details": "30 μM, 1 h, recombinant protein in cell lysate"}, "Jurkat cells [2]": {"system": "Jurkat cells", "experiment": "Western blot of PARP, CASP8 and CASP3 cleavage", "details": "30 μM"}}, "data": [{"compound": "O=C(c1ccccc1)N1CCC(N(C(=O)CCl)c2ccccc2)CC1", "values": [{"measurement": "FasL-induced apoptosis", "setting": "primary human T cells", "result": "completely inhibited"}, {"measurement": "FasL-induced apoptosis", "setting": "Jurkat cells [1]", "result": "completely blocked"}, {"measurement": "isoTOP-ABPP ratio, Q15084_C190", "setting": "PDIA6 C190 (Q15084); 231", "result": 1.0}, {"measurement": "isoTOP-ABPP ratio, Q15084_C190", "setting": "PDIA6 C190 (Q15084); ramos", "result": 1.2}, {"measurement": "isoTOP-ABPP ratio, P40763_C259", "setting": "STAT3 C259 (P40763); 231", "result": 1.3}, {"measurement": "isoTOP-ABPP ratio, P40763_C259", "setting": "STAT3 C259 (P40763); ramos", "result": 1.8}, {"measurement": "isoTOP-ABPP ratio, Q99873_C109", "setting": "PRMT1 C109 (Q99873); 231", "result": 1.1}, {"measurement": "isoTOP-ABPP ratio, Q99873_C109", "setting": "PRMT1 C109 (Q99873); ramos", "result": 1.1}, {"measurement": "isoTOP-ABPP ratio, Q9UPT9_C171", "setting": "USP22 C171 (Q9UPT9)", "result": 3.2}, {"measurement": "isoTOP-ABPP ratio, O14980_C528", "setting": "XPO1 C528 (O14980)", "result": 0.7}, {"measurement": "isoTOP-ABPP ratio, P48200_C137", "setting": "IREB2 C137 (P48200)", "result": 2.2}, {"measurement": "isoTOP-ABPP ratio, P48735_C308", "setting": "IDH2 C308 (P48735)", "result": 0.9}, {"measurement": "isoTOP-ABPP ratio, P09211_C48", "setting": "GSTP1 C48 (P09211); 231", "result": 1.8}, {"measurement": "isoTOP-ABPP ratio, P09211_C48", "setting": "GSTP1 C48 (P09211); ramos", "result": 0.9}, {"measurement": "isoTOP-ABPP ratio, Q16822_C306", "setting": "PCK2 C306 (Q16822)", "result": 1.4}, {"measurement": "isoTOP-ABPP ratio, P63244_C182", "setting": "GNB2L1 C182 (P63244)", "result": 1.5}, {"measurement": "isoTOP-ABPP ratio, P16455_C150", "setting": "MGMT C150 (P16455)", "result": 20.0}, {"measurement": "isoTOP-ABPP ratio, P24752_C119", "setting": "ACAT1 C119 (P24752); 231", "result": 2.3}, {"measurement": "isoTOP-ABPP ratio, P24752_C119", "setting": "ACAT1 C119 (P24752); ramos", "result": 2.0}, {"measurement": "isoTOP-ABPP ratio, P24752_C126", "setting": "ACAT1 C126 (P24752)", "result": 2.2}, {"measurement": "isoTOP-ABPP ratio, P24752_C196", "setting": "ACAT1 C196 (P24752)", "result": 1.9}, {"measurement": "isoTOP-ABPP ratio, P19447_C342", "setting": "ERCC3 C342 (P19447); 231", "result": 1.3}, {"measurement": "isoTOP-ABPP ratio, P19447_C342", "setting": "ERCC3 C342 (P19447); ramos", "result": 2.0}, {"measurement": "isoTOP-ABPP ratio, P24752_C413", "setting": "ACAT1 C413 (P24752)", "result": 4.2}, {"measurement": "R value (DMSO/fragment), C360 of active CASP8", "setting": "active CASP8 C360", "result": 1.9}, {"measurement": "R value (DMSO/fragment), C360 of pro-CASP8", "setting": "pro-CASP8 C360", "result": 10}, {"measurement": "proteolytic processing of CASP3, CASP8 and PARP", "setting": "Jurkat cells [2]; FASL-treated Jurkat cells", "result": "completely blocked"}, {"measurement": "cleavage of CASP8", "setting": "Jurkat cells [2]; STS-treated Jurkat cells", "result": "substantially inhibit"}, {"measurement": "cleavage of PARP and CASP3", "setting": "Jurkat cells [2]; STS-treated Jurkat cells", "result": "did not block"}]}]}
